# Assay results reported in patent US7910622B2, “Modulation of bacterial quorum sensing with synthetic ligands” (Wisconsin Alumni Research Foundation, priority 2007, dated 2011).
# By UniProt entry, the sequences of proteins in these tests, tags left out. Where a name states a change or a piece, a line headed by the entry shows the natural chain unless it says otherwise.
# UniProt P35327: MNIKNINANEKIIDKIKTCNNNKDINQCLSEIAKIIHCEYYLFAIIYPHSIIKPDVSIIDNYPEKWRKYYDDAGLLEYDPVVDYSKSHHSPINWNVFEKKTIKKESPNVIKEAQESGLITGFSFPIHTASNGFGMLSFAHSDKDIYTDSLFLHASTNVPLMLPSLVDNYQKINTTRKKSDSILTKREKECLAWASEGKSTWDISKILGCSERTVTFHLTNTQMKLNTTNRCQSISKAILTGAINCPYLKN
# Target: T1, LuxR (Aliivibrio fischeri, UniProt P35327)
# T1 construct: a Δ-luxI derivative of V. fischeri ES114, in which the native lux operon behaves as the bioluminescent reporter; endogenous in cells; host or cells: V. fischeri ES114 (Δ-luxI)
# Test: cell-based
# Parameters: species or system Vibrio fischeri
# Conditions: LuxR IC50, determined against 5 μM OHHL
# Description: Luminescence assays. For agonism assays, an appropriate amount of AHL stock solution was added into a 96-well plate. An overnight culture of E. coli or V. fischeri was diluted 1:10 with appropriate media (LB plus 10 μg/mL tetracycline for E. coli; LBS for V. fischeri). A 200-μL portion of the diluted culture was added to each well of the plate. Plates were grown for 4-8 h with shaking (200 rpm; 30° C. for E. coli and RT for V. fischeri). Luminescence was measured using a multilabel plate reader and normalized to cell density. […] All assays were performed in triplicate. Graphpad Prism software was used to calculate IC50 and EC50 values.
# Vibrio fischeri assay procedures. […] Luminescence then was measured and normalized to cell density per well. […] IC50 and EC50 values were calculated using GraphPad Prism software using a sigmoidal curve fit.
# (§1) V. fischeri reporter gene assay protocols. […] Luminescence then was measured and normalized to cell density per well.
# (§2) Dose response reporter gene assays. […] IC50 and EC50 values were calculated using GraphPad Prism software (v. 4.0) using a sigmoidal curve fit.
# as §1, §2
structure (smiles),measurement,value
"O=C(Cc1ccc(Br)cc1)N[C@H]1CCOC1=O [A17, 4-bromo-phenylacetanoyl HL, reference compound]",IC50,4.13 µM
